The term inhibition denotes the change of the read-out against control, counted positive when it falls.

The chains behind the UniProt entries cited, without tags or fusion partners. Where a name states a change or a piece, a line headed by the entry shows the natural chain unless it says otherwise.
UniProt P07711: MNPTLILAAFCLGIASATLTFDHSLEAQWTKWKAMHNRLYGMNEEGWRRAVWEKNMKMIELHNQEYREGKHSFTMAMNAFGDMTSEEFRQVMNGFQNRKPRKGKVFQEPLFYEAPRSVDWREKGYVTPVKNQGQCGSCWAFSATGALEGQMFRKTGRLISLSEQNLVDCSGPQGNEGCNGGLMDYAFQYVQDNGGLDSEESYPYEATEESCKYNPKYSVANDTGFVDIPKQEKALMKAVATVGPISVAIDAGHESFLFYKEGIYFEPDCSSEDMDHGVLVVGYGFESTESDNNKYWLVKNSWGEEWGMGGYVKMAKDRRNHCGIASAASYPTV

The results in this text go back to PubChem BioAssay AID2178 (The Scripps Research Institute Molecular Screening Center, 2009).

The entries are a selection whose mix differs from that of the whole data set. Calls of active or inactive are those of the source.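 The calls were made as follows: active = average inhibition across replicates above the hit cutoff set in the earlier primary screen; inactive = the rest.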

In the assay the target is Procathepsin L (Homo sapiens) (UniProt P07711). The assay can be described thus: CTSL1 protease inhibition confirmation – biochemical, QFRET, triplicate, counter-screen for PFM18AAP inhibitor project (AID 2178).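 Also: 0% = median of test compound wells and 100% = Z-Phe-Ala-diazomethylketone 1 µM.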 The settings on record: purified cathepsin L1, Z-Leu-Arg-MCA fluorescence; at 5.96 µM; hits give high values. An outline of the steps:
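system = purified recombinant cathepsin L1 enzyme | amount = enzyme 1.5 µg/mL before substrate addition | buffer or medium = Tris pH 7.5 buffer with DTT and BSA | compound dosing = one dose, 5.96 µM nominal, 0.59% DMSO | incubation = 30 min compound preincubation, then 90 min with substrate, 25 °C | measured by = fluorescence of released MCA at 0 and 90 min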
(A counterscreen serves to expose hits that act by an unwanted route or on another target.)
In the case of `CC(C)=N/N=C(\N)N[N+](=O)[O-]`, the inhibition was inactive: -0.17%.
